What was measured:
[1] = system: acute post-operative pain following orthopedic surgery (bunionectomy); settings: human, in vivo
[2] = system: painful diabetic neuropathy; settings: human, in vivo

With `CN1CC[C@]23c4c5ccc(O)c4O[C@H]2[C@@H](O)C=C[C@H]3[C@H]1C5` [morphine] the “TEAE ASAT increased, subjects” value ([1]; both) was 2.0%, the “TEAE Dizziness, subjects” value ([1]; both) was 24.0% and the “TEAE Hot flush, subjects” value ([1]; both) was 4.0%. For the same compound, the “TEAE Hyperhidrosis, subjects” value ([1]; both) was 6.0%, the “TEAE Nausea, subjects” value ([1]; both) was 66.0% and the “TEAE Pruritus, subjects” value ([1]; both) was 2.0%. The “TEAE Somnolence, subjects” value ([1]; both) was 16.0%, the “TEAE Vomiting, subjects” value ([1]; both) was 40.0% and the “TEAE: ASAT increased” value ([1]; both) was 2.0%. For the same compound, the “TEAE: Dizziness” value ([1]; both) was 24.0%, the “TEAE: Hot flush” value ([1]; both) was 4.0% and the “TEAE: Hyperhidrosis” value ([1]; both) was 6.0%. The “TEAE: Nausea” value ([1]; both) was 66.0%, the “TEAE: Pruritus” value ([1]; both) was 2.0% and the “TEAE: Somnolence” value ([1]; both) was 16.0%. For the same compound, the “TEAE: Vomiting” value ([1]; both) was 40.0%, the “subjects with SAE's” value ([1]; both) was 0 and the “subjects with TEAE(s)” value ([1]; both) was 46 (92.0) n (%). For the same compound, the “subjects with TEAE(s) (n (%))” value ([1]; both) was 46 (92.0) n (%), the “subjects with TEAE(s), related” value ([1]; both) was 42 (84.0) n (%) and the “subjects with TEAE(s), serious” value ([1]; both) was 0 n (%). For the same compound, the “subjects with TEAE(s): related (n (%))” value ([1]; both) was 42 (84.0) n (%), the “subjects with TEAE(s): serious (n (%))” value ([1]; both) was 0 n (%) and the “total number of TEAE's” value ([1]; both) was 144 n. For the same compound, the “total number of TEAE's, related” value ([1]; both) was 99 (68.8) n (%), the “total number of TEAE's: related (n (%))” value ([1]; both) was 99 (68.8) n (%) and the “LS mean Δplacebo, sum of pain intensity differences” value [1] was −7.12. The “LS mean, sum of pain intensity differences” value [1] was 42.01, the “Sum of pain intensity differences, LS mean” value [1] was 42.01 and the “Sum of pain intensity differences, LS mean Δplacebo” value [1] was −7.12. For the same compound, the “sum of pain intensity differences, LS mean” value [1] was 42.01, the “sum of pain intensity differences, LS mean Δplacebo” value [1] was −7.12 and the “Number of events leading to withdrawal” value ([2]; both) was 3. The “Number of serious TEAEs” value ([2]; both) was 0, the “Subjects with TEAEs (number)” value ([2]; both) was 34 and the “Subjects with TEAEs (percent)” value ([2]; both) was “(94.4%)”. For the same compound, the “TEAEs (%) Back pain” value ([2]; both) was 5.6%, the “TEAEs (%) Bacteriuria” value ([2]; both) was 13.9% and the “TEAEs (%) Cold sweat” value ([2]; both) was 0%. The “TEAEs (%) Constipation” value ([2]; both) was 25.0%, the “TEAEs (%) Dizziness” value ([2]; both) was 19.4% and the “TEAEs (%) Dyspepsia” value ([2]; both) was 2.8%. For the same compound, the “TEAEs (%) Fatigue” value ([2]; both) was 19.4%, the “TEAEs (%) Headache” value ([2]; both) was 25.0% and the “TEAEs (%) Hyperglycemia” value ([2]; both) was 2.8%. The “TEAEs (%) Nausea” value ([2]; both) was 47.2%, the “TEAEs (%) Peripheral oedema” value ([2]; both) was 0% and the “TEAEs (%) Pruritus” value ([2]; both) was 13.9%. The “TEAEs (%) Vision blurred” value ([2]; both) was 0%, the “TEAEs (%) Visual impairment” value ([2]; both) was 0% and the “TEAEs (%) Vomiting” value ([2]; both) was 52.8%. For the same compound, the “Total number of TEAEs” value ([2]; both) was 209, the “Total number of TEAEs, at least possibly related (in brackets)” value ([2]; both) was “(156)” and the “TEAEs (%) Oral discomfort” value ([2]; both, po) was 0%. For the same compound, the “Change from overall baseline (pain intensity, NRS), ANCOVA” value [2] was −2.5, the “Change from overall baseline (pain intensity, NRS), descriptive statistics” value [2] was −2.27 and the “Change from period baseline (pain intensity, NRS), ANCOVA” value [2] was −2.2. For the same compound, the “Change from period baseline (pain intensity, NRS), descriptive statistics” value [2] was −2.04.

From patent US10912763B2 (priority 2010, dated 2021)
